In patent publication US6825348B2, “Antiviral compounds” (Academia Sinica, priority 2002, dated 2004):

Tested on: Spleen phosphodiesterase
Conditions: pH 6.5, 37° C., 8 h

Question: For “9-(β-D-furanosyl)adenine-3′-[[1-(adenin-7-yl-ethoxy)methyl]phosphonate]”, which “yield of 20 with spleen phosphodiesterase” value is on record?
Answer: 60%

Question: And the “yield of adenosine with spleen phosphodiesterase” value?
Answer: 40%
